Assay: Selectivity index, ratio of CC50 for human RD cells to EC50 for antiviral activity against Enterovirus A71 infected in human RD cells
Type: toxicity, cell-based
Settings: read-out: Ratio CC50/EC50

O=C(CCC(CCC(=O)N[C@H](Cc1c[nH]c2ccccc12)C(=O)O)(CCC(=O)N[C@H](Cc1c[nH]c2ccccc12)C(=O)O)NC(=O)CCOCC(COCCC(=O)NC(CCC(=O)N[C@H](Cc1c[nH]c2ccccc12)C(=O)O)(CCC(=O)N[C@H](Cc1c[nH]c2ccccc12)C(=O)O)CCC(=O)N[C@H](Cc1c[nH]c2ccccc12)C(=O)O)(COCCC(=O)NC(CCC(=O)N[C@H](Cc1c[nH]c2ccccc12)C(=O)O)(CCC(=O)N[C@H](Cc1c[nH]c2ccccc12)C(=O)O)CCC(=O)N[C@H](Cc1c[nH]c2ccccc12)C(=O)O)COCCC(=O)NC(CCC(=O)N[C@H](Cc1c[nH]c2ccccc12)C(=O)O)(CCC(=O)N[C@H](Cc1c[nH]c2ccccc12)C(=O)O)CCC(=O)N[C@H](Cc1c[nH]c2ccccc12)C(=O)O)N[C@H](Cc1c[nH]c2ccccc12)C(=O)O
selectivity ratio: 83

Reference: ChEMBL document CHEMBL5034016 (J Med Chem, 2021)
